Test results: patent US9994581B2, “Bromodomain inhibitors” (AbbVie Inc., priority 2013, dated 2018)
pKi: −log10 of the molar value.

Biological target: BRD4 (BDI-BDII_K57-K550) (Homo sapiens, UniProt O60885)
Test: TR-FRET bromodomain binding assay
Conditions: His-tagged tandem bromodomain, Alexa647-labeled probe; Ki calculated from IC50s, probe Kd and probe concentration
Procedure: A time-resolved fluorescence resonance energy transfer (TR-FRET) assay was used to determine the affinities of compounds of the Examples listed in Table 1 for the tandem domain of bromodomain BRD4. […] An Alexa647-labeled BET-inhibitor was used as the fluorescent probe in the assay.
TR-FRET data were normalized to the means of 24 no-compound controls (“high”) and 8 controls containing 1 μM un-labeled probe (“low”). Percent inhibition was plotted as a function of compound concentration and the data were fit with the 4 parameter logistic equation to obtain IC50s. Inhibition constants (Ki) were calculated from the IC50s, probe Kd and probe concentration. Typical Z′ values were between 0.65 and 0.75.

## CCS(=O)(=O)Nc1ccc2c(c1)-c1cn(C)c(=O)cc1OCCCCc1cc(F)cc(F)c1O2 [Example A-14, N-(11,13-difluoro-2-methyl-3-oxo-2,3,6,7,8,9-hexahydrodibenzo[4,5:7,8][1,6]dioxacyclododecino[3,2-c]pyridin-17-yl)ethanesulfonamide]
  pKi: 8.83
